# Test results: patent US20220117917A1, “PH-ACTIVATED NANOPARTICLES” (Ohio State Innovation Foundation, priority 2018, published 2022)
# How the values were obtained:
# HER18 cells = test: Cell viability and Western blot; type: cell-based, human; conditions: parental cells
# HER18R cells = test: Cell viability and Western blot, trastuzumab-resistant cells; type: cell-based, human
# [1] = tested on: HER2-positive breast cancer; conditions: single therapy; cited from earlier work
# BT-474R cells = test: Cell viability and Western blot, trastuzumab-resistant cells; type: cell-based, human
# BT474 cells = test: Cell viability and Western blot; type: cell-based, human; conditions: parental cells
substance,measurement,setting,value
trastuzumab: monoclonal anti-HER2 antibody,cell proliferation (p27) and AKT signaling (pAKT),HER18 cells,inhibited cell proliferation (increased p27 levels) and AKT signaling pathway (reduced pAKT levels)
same,cell proliferation (p27) and AKT signaling (pAKT),HER18R cells,not observed in the resistant cells
same,increase of IC50 versus parental line,HER18R cells; 72 h,~10 fold
same,sensitivity to single agent,"HER18R cells; trastuzumab 1 μg/ml, 72 h",insensitive
same,overall response rate,[1],26%
same,cell proliferation (p27) and AKT signaling (pAKT),BT-474R cells,not observed in the resistant cells
same,increase of IC50 versus parental line,BT-474R cells; 72 h,~10 fold
same,cell proliferation (p27) and AKT signaling (pAKT),BT474 cells,inhibited cell proliferation (increased p27 levels) and AKT signaling pathway (reduced pAKT levels)
